Assays:
Assay in all cases: Histone peptide microarray
Format in all cases: binding, human
[1] = test system: KDM5A (1); conditions: sheet "Array Heatmap"; GST-tagged KDM5A (1); arrays performed twice, total replicate number n = 4
Text: (§1) To more comprehensively define the histone interactions of the 31 PHD readers identified from the domain microarray analyses, we probed each on an alternate microarray platform containing a library of 293 synthetic histone peptides with single or combinatorial PTMs (Additional file 2: Figure S4 and Additional file 3: Table S2). […] In general, the 31 PHD fingers were confirmed to associate with the H3 tail with the same H3K4 methyl preferences as in the domain microarrays (Fig. 2; Additional file 3: Table S2). […] In addition, we confirmed the newly identified interactions observed with the domain microarrays for PHRF1 and TRIM66 (Fig. 2).
(§2) The 31 GST-tagged PHD readers identified in the PHD finger domain array were expressed and purified as previously. Histone peptide arrays and peptide pulldown assays were conducted as recently described (specifically, the optimized protocol from Petell et al. for the former).
(§3) Supplementary file 13072_2020_328_MOESM3_ESM.xlsx: Additional file 3: Table S2. Histone Peptide Microarray Results. Excel Tab Peptide List is a compiled list of the entire 293 histone peptide library with amino acid sequence ranges. Excel Tab Peptide Array Grid Map is a table representing the pattern in which peptides have been printed for the peptide microarray. Each number corresponds to the peptide number designated in Peptide List. Excel Tab Average Signals is a compiled set of binding data: chromatin reader at 0.5 μM vs. entire 293 peptide library. Data is presented as the average and standard deviation of 4 replicates. The average signals are colored to indicate signal intensity with green being strong and white being weak/low. […] Key: red= stronger relative binding; blue = weaker relative binding. Excel Tab Array info summary is a table summarizing the domains, sequence coverage, array signal range, and noise for each of the GST-tagged readers assayed on the peptide microarrays.

[2] = test system: KDM5A (3); conditions: sheet "Array Heatmap"; GST-tagged KDM5A (3); arrays performed twice, total replicate number n = 4
Text: as §1, §2, §3

[3] = test system: KDM5B (3); conditions: sheet "Array Heatmap"; GST-tagged KDM5B (3); arrays performed twice, total replicate number n = 4
Text: as §1, §2, §3

[4] = test system: KDM7A; conditions: sheet "Array Heatmap"; GST-tagged KDM7A; arrays performed twice, total replicate number n = 4
Text: as §1, §2, §3

[5] = test system: MLL5; conditions: sheet "Array Heatmap"; GST-tagged MLL5; arrays performed twice, total replicate number n = 4
Text: as §1, §2, §3

[6] = test system: MORC3 (CW); conditions: sheet "Array Heatmap"; GST-tagged MORC3 (CW); arrays performed twice, total replicate number n = 4
Text: as §1, §2, §3

[7] = test system: PHF13; conditions: sheet "Array Heatmap"; GST-tagged PHF13; arrays performed twice, total replicate number n = 4
Text: as §1, §2, §3

[8] = test system: PHF21A; conditions: sheet "Array Heatmap"; GST-tagged PHF21A; arrays performed twice, total replicate number n = 4
Text: as §1, §2, §3

[9] = test system: PHF23; conditions: sheet "Array Heatmap"; GST-tagged PHF23; arrays performed twice, total replicate number n = 4
Text: as §1, §2, §3

[10] = test system: PHF2; conditions: sheet "Array Heatmap"; GST-tagged PHF2; arrays performed twice, total replicate number n = 4
Text: as §1, §2, §3

[11] = test system: PHF8; conditions: sheet "Array Heatmap"; GST-tagged PHF8; arrays performed twice, total replicate number n = 4
Text: as §1, §2, §3

[12] = test system: PHRF1 (RP); conditions: sheet "Array Heatmap"; GST-tagged PHRF1 (RP); arrays performed twice, total replicate number n = 4
Text: as §1, §2, §3

[13] = test system: RAG2; conditions: sheet "Array Heatmap"; GST-tagged RAG2; arrays performed twice, total replicate number n = 4
Text: as §1, §2, §3

[14] = test system: SP140L; conditions: sheet "Array Heatmap"; GST-tagged SP140L; arrays performed twice, total replicate number n = 4
Text: as §1, §2, §3

[15] = test system: TAF3; conditions: sheet "Array Heatmap"; GST-tagged TAF3; arrays performed twice, total replicate number n = 4
Text: as §1, §2, §3

[16] = test system: TRIM66 (PB); conditions: sheet "Array Heatmap"; GST-tagged TRIM66 (PB); arrays performed twice, total replicate number n = 4
Text: as §1, §2, §3

H3K4me2 + K9me2: H3 1-15
Array Heatmap signal, KDM5A (1) [1]: 0.5461 | Array Heatmap signal, KDM5A (3) [2]: 0.665 | Array Heatmap signal, KDM5B (3) [3]: 0.5432 | Array Heatmap signal, KDM7A [4]: 0.3992 | Array Heatmap signal, MLL5 [5]: 0.6156 | Array Heatmap signal, MORC3 (CW) [6]: 0.5918 | Array Heatmap signal, PHF13 [7]: 0.7097 | Array Heatmap signal, PHF21A [8]: 0.526 | Array Heatmap signal, PHF23 [9]: 0.6416 | Array Heatmap signal, PHF2 [10]: 0.6413 | Array Heatmap signal, PHF8 [11]: 0.4521 | Array Heatmap signal, PHRF1 (RP) [12]: 0.6456 | Array Heatmap signal, RAG2 [13]: 0.3362 | Array Heatmap signal, SP140L [14]: 0.3961 | Array Heatmap signal, TAF3 [15]: 0.342 | Array Heatmap signal, TRIM66 (PB) [16]: 0.6606

Source: paper PMC6979384, “Characterization of the plant homeodomain (PHD) reader family for their histone tail interactions” (Epigenetics & Chromatin, 2020)
